{"sequences": {"note": "Amino acid sequences for entries named in this document (tags omitted).", "UniProt P14416, whole entry": "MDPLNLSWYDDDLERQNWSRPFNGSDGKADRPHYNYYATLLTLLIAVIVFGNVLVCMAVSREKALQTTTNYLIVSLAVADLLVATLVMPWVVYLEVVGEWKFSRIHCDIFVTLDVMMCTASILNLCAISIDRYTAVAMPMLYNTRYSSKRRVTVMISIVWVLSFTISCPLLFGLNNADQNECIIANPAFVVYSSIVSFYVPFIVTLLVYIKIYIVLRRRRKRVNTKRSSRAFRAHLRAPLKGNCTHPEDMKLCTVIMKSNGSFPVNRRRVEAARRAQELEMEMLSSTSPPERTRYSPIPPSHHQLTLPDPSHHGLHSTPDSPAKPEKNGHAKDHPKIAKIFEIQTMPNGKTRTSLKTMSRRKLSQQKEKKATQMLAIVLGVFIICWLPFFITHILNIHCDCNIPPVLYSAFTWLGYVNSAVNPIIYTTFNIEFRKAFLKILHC"}, "source": "BindingDB's records for PubMed 8099194", "about": "(Astra Arcus, 1993)", "molecular_target": "D(2) dopamine receptor (Homo sapiens, UniProt P14416)", "data": [{"smiles": "CCN1CCC[C@H]1CNC(=O)c1c(O)c(Cl)cc(Cl)c1OC", "note": "[3,5-Dichloro-N-(1-ethyl-pyrrolidin-2-ylmethyl)-2-hydroxy-6-methoxy-benzamide (raclopride)]", "values": [{"measurement": "Ki", "value": 0.6, "unit": "nM"}]}]}
